Measurements from article PMC13600255 (Journal of the American Chemical Society, 2025).

Chains of the proteins cited; added tags and fusions are not shown.
UniProt Q01827, whole entry: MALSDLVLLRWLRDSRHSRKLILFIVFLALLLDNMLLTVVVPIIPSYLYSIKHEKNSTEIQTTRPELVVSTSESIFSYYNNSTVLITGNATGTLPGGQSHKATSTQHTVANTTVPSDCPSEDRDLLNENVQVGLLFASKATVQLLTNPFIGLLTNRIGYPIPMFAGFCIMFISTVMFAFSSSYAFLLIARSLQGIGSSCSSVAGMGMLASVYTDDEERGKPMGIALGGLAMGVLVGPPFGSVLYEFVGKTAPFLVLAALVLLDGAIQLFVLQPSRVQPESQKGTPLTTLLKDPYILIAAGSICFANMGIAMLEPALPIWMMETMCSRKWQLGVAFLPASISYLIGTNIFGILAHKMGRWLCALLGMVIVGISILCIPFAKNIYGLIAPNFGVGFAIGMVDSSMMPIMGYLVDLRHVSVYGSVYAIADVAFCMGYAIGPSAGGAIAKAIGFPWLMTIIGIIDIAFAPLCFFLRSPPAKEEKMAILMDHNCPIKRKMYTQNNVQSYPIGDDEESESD

Tests used:
VMAT2 = VMAT2 (Rattus norvegicus, UniProt Q01827); assay: [3H]5-HT release from rat brain synaptic vesicles via VMAT2; format: biochemical
rat VMAT2 (rVMAT2) = rat VMAT2 (rVMAT2) (Rattus norvegicus, UniProt Q01827); assay: [3H]5-HT uptake inhibition in rat brain synaptic vesicular fraction; format: biochemical

COC(=O)[C@H]1[C@H]2C[C@@H]3c4[nH]c5cc(OC)ccc5c4CCN3C[C@H]2C[C@@H](OC(=O)c2cc(OC)c(OC)c(OC)c2)[C@@H]1OC [reserpine, reference compound]
[3H]5-HT Release EC50 ± SD via VMAT2 (VMAT2): inactive
IC50 (rat VMAT2 (rVMAT2)): 186 ± 26.8 nM

COc1cc2c(cc1OC)C1CC(=O)C(CC(C)C)CN1CC2 (stereo not drawn) [tetrabenazine (TBZ), tetrabenazine, reference compound]
[3H]5-HT Release EC50 ± SD via VMAT2 (VMAT2): inactive
